Half-life of the Trx fusion protein on digestion by purified 20S CP, SDS-PAGE (α-Syn fused to Trx without peptide: 4.0 h), IC50 of inhibition of the CT-L activity (Suc-LLVY-AMC) of the 20S CP with 0.03% SDS and CT-L activity of intracellular proteasomes in U251 cells data for nine substances are collected here from publication PMC10743564, “Acceleration of Protein Degradation by 20S Proteasome-Binding Peptides Generated by In Vitro Artificial Evolution” (International Journal of Molecular Sciences, 2023).

Chains of the proteins cited; added tags and fusions are not shown. Lines headed by an entry give the natural chain unless they say otherwise; changes in a name come on top.
UniProt P60900: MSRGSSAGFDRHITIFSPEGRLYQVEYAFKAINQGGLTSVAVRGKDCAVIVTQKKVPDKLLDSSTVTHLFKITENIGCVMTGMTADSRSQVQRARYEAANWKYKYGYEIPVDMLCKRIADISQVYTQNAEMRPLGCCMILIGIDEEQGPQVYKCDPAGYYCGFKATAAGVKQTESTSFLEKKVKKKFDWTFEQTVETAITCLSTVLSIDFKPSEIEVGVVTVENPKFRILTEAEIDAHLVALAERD

The first experiment addresses human 20S core particle (CP) of the proteasome (human) (UniProt P60900).
For the substance “thioredoxin (Trx)-α-Syn fused to 20S-BP1(1-12)”, the half-life of the Trx fusion protein on digestion by purified 20S CP, SDS-PAGE (α-Syn fused to Trx without peptide: 4.0 h) turned out to be 54 min. On to “thioredoxin (Trx)-α-Syn fused to 20S-BP1(1-8)YYA”, for which the half-life of the Trx fusion protein on digestion by purified 20S CP, SDS-PAGE (α-Syn fused to Trx without peptide: 4.0 h) came to 54 min.

For the next experiment the target is unchanged. The source holds these as a separate data set.
Regarding [Ala^8]20S-BP1(1-12) (peptide), the IC50 of inhibition of the CT-L activity (Suc-LLVY-AMC) of the 20S CP with 0.03% SDS amounted to 1 µM. On the same count and under the same terms, with Antennapedia peptide the figure was over 50 µM; with 20S-BP1(7-8)YYA (peptide), over 50 µM; with Rpt2-C (peptide), over 50 µM. Still for that read-out and setting: with Rpt3-C (peptide) the figure was over 50 µM.

The next experiment has the same target. The source holds these as a separate data set.
In the case of AntP-20S-BP1(5-8)YYA (peptide), the CT-L activity of intracellular proteasomes in U251 cells at 10 μM peptide worked out at 3.8 fold. The same measure, in the same setting: with AntP-20S-BP1(5-11) (peptide) the figure was 4.6 fold.
